Patent US20230233144A1, “Method for Determining Medication Adherence and Taggants Therefo” (The Regents of the University of Colorado, A Body Corporate, priority 2021, published 2023)

Experiments:
[1] = rats, 0.2 mg oral 5+ adenine doses, dried blood spots
[2] = Daily 5+ ATP to rats for six days, 5+ ATP/1+ ATP ratio in dried blood spots by mass spectrometry; details: dried blood spots from tail nicks, six day period, 100 mcg daily
From the text: Once each day, blood spot samples were taken from each rat and dried.
The in vivo ATP pool is large, the half-life of ATP is relatively long, 3 days in rats, corresponding to about 10 days in humans.

5+ adenosine triphosphate [5+ ATP]
washout half-life [1]: approximately 10 days | ratio of +5 ATP to +1 ATP over time [2]: increases in a predictable manner
